From patent US11040053B2, “Compositions and methods for activating “stimulator of interferon gene”13 dependent signalling” (CHINOOK THERAPEUTICS, INC., priority 2015, dated 2021)

By UniProt entry, the sequences of proteins in these tests, tags left out. Residues count along the entry.
UniProt Q86WV6, 140-379 G230A/H232R/R293Q limits assumed: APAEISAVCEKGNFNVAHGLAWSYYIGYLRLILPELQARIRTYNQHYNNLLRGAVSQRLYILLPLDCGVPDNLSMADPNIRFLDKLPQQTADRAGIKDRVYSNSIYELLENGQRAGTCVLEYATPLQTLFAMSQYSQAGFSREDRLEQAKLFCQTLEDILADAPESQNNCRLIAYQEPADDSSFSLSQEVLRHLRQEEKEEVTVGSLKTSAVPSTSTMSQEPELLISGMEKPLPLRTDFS
UniProt Q86WV6, 140-379 H232R: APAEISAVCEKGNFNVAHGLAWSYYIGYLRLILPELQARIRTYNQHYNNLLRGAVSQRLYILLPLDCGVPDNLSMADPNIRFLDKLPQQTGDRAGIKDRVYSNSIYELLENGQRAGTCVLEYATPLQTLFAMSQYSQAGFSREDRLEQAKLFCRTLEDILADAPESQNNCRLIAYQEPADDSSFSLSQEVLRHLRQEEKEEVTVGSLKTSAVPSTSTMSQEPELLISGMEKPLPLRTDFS
UniProt Q86WV6, 140-379: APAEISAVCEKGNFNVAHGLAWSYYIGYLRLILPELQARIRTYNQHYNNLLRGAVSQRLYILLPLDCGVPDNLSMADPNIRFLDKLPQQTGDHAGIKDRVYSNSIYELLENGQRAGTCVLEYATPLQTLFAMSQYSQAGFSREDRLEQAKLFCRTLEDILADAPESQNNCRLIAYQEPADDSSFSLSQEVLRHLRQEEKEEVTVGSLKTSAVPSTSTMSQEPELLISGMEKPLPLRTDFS

Tests used:
[1] = target: T1, HAQ allele hSTING (Homo sapiens, UniProt Q86WV6, G230A/H232R/R293Q); test: Differential scanning fluorometry (DSF) binding to purified hSTING HAQ allele; conditions: 1 mg/ml STING AA140-379, ligand 1 mM
T1 construct: DNA encoding amino acids 140-379 (amino acid numbering corresponding to Swiss Prot Q86WV6); 6xHIS (N, cleaved yes); SUMO (N, cleaved yes); made in house; host or cells: Rosetta2 (DE3) E. coli
Description: (§1) Cells were grown in lysogeny broth at 37° C. until a […] absorbance of 0.6 was reached. […] Cell pellets were re-suspended on ice in a buffer containing 50 mM Tris hydrochloride (Tris-HCl) pH 7.5, 500 mM sodium chloride (NaCl), 20 mM imidazole, 10% glycerol, 1 mM tris(2-carboxyethyl)phosphine hydrochloride (TCEP) and protease inhibitor tablet (Pierce) (Buffer A). Cells were lysed using an S-450D sonifier (Emmerson industrial) on ice. […] Protein was aliquoted, flash frozen in liquid nitrogen and stored at −80° C. until use.
(§2) The protein is heated in the presence of a dye that binds to and fluoresces in hydrophobic environments. The protein is thermally denatured by heating resulting in increased dye binding to the unfolded protein and fluorescence. The temperature midpoint (Tm) of a proteins denaturation is established by calculating the half maximal value of the denaturation curve. […]
(§3) Samples were placed in hard shell PCR plate (Bio-Rad). The fluorescence as a function of temperature was recorded in a CFX 96 real time PCR machine (Bio-Rad) reading on the HEX channel, excitation 450-490, emission 560-580 nm. […] The midpoint temperature (Tm) was calculated by fitting the curves of the fluorescence as a function of temperature to a Boltzmann sigmoidal function (Graph Pad Prism).

[2] = target: hSTING(WT) (Homo sapiens, UniProt Q86WV6, H232R); test: Differential scanning fluorometry (DSF) binding to purified hSTING WT; design: DNA encoding amino acids 140-379 (amino acid numbering corresponding to Swiss Prot Q86WV6); 6xHIS (N, cleaved yes); SUMO (N, cleaved yes); made in house; host or cells: Rosetta2 (DE3) E. coli; conditions: 1 mg/ml STING AA140-379, ligand 1 mM
Description: as §1, §2, §3

[3] = target: T2, reference (REF) STING allele (Homo sapiens, UniProt Q86WV6); test: Cytokine transcript induction (qRT-PCR) in STING^REF/REF hPBMCs; type: cell-based; conditions: FIGS. 8A-B, 2 hours stimulation, 100 μM to 0.1 μM
T2 construct: endogenous in cells
Description: The induction of type I interferon was measured in human primary blood mononuclear cells (hPBMCs) to evaluate the potency of mono- or di-F-CDN compounds as described herein. hPBMCs from two unique donors were used: one donor was homozygous for the wild type (WT) STING allele (STING^WT/WT) and the other donor was homozygous for the so-called reference (REF) STING allele (STING^REF/REF). The STING genotype of these donors was determined by PCR amplification and sequencing: genomic DNA was isolated from 10^4 hPBMCs using Quick Extract DNA Extraction Solution (Epicentre) and was used to amplify regions of exon 3, 6, and 7 of the human STING gene.
Cells were incubated at 37° C., 5% CO2 with concentrations ranging from 100 μM to 0.1 μM of each CDN. After 2 hours (FIGS. 7 and 8) or 2 hours and 6 hours (FIGS. 9-13) stimulation, cells were harvested by centrifugation and washed once with phosphate-buffered saline. Cellular RNA was isolated using the Aurum Total RNA 96 Kit and cDNA was synthesized using the iScript cDNA Synthesis Kit. Target and reference gene expression was assessed by real-time qRT-PCR using PrimePCR probe assays and the CFX96 gene cycler (all reagents and equipment from BioRad). Normalized IFNβ expression was expressed relative to untreated cells. […]

[4] = target: T3, hSTING(REF) (Homo sapiens, UniProt Q86WV6); test: Differential scanning fluorometry (DSF) binding to purified hSTING REF allele; design: DNA encoding amino acids 140-379 (amino acid numbering corresponding to Swiss Prot Q86WV6); 6xHIS (N, cleaved yes); SUMO (N, cleaved yes); made in house; host or cells: Rosetta2 (DE3) E. coli; conditions: 1 mg/ml STING AA140-379, ligand 1 mM
Description: as §1, §2, §3

[5] = target: T3, hSTING(REF); test: IFN-β luciferase reporter in HEK293T cells stably expressing hSTING(REF), digitonin permeabilization; conditions: FIGS. 6A-B, 0.1 μM to 100 μM and 6.25 μM CDN

SMILES: Nc1nc2c(ncn2[C@@H]2O[C@@H]3COP(=O)(O)O[C@H]4[C@@H](O)[C@H](n5cnc6c(N)ncnc65)O[C@@H]4COP(=O)(O)O[C@H]3[C@H]2O)c(=O)[nH]1 [3'3'-(G)(A), reference compound]
- hSTING Tm Shift HAQ [1]: 10.5 °C
- hSTING Tm Shift WT [2]: 2 °C
- relative normalized IFNβ expression, in words [3]: did not stimulate production of appreciable IFNβ transcript levels
- hSTING Tm Shift REF [4]: 2.5 °C
- IFNβ luciferase reporter induction by hSTING(REF), in words [5]: responded poorly
